The results in this text go back to patent publication US7297771B2 (priority 1992, dated 2007).

Chains of the proteins cited; added tags and fusions are not shown.
UniProt P32300, whole entry, looked up: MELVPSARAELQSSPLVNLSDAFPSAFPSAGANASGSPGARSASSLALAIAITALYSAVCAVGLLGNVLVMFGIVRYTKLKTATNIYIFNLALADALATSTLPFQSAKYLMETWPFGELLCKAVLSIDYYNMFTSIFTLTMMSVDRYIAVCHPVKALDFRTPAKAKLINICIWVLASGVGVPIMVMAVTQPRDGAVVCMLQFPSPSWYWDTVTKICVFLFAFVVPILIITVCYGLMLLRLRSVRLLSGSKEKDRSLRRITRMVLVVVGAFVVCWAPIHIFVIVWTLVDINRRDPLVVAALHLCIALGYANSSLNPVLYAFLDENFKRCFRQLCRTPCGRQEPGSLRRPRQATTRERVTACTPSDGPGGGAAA

The target of this assay is delta opioid receptor of NG 108-15 cells (Mus musculus, UniProt P32300). The note with it: NG 108-15 cells (native delta opioid receptor).

For `CN(C(=O)Cc1ccc(Cl)c(Cl)c1)[C@@H]1CCCC[C@H]1N1CCCC1` (racemic), the “PKi NG 108-15” value was 4.24.
